Reference: US11773062B2, “Deuterated compounds” (priority 2021, dated 2023)

Assay: Human liver mitochondrial fraction intrinsic clearance of SPL026, SPL028i, SPL028iii, SPL028viii
Type: in vitro ADME
Details: 0.5 mg/mL human liver mitochondrial fraction (Table 10)
From the text: Human Liver Mitochondrial (HLMt) fractions contain high quantities of MAO enzymes and therefore, provide a useful tool to measure the clearance of MAO substrates.

## [2H]C([2H])([2H])N(C([2H])([2H])[2H])C([2H])([2H])Cc1c[nH]c2ccccc12 [SPL028viii, α,α,bis-deuterio-N,N-hexadeuterio-dimethyltryptamine]
  Half-life: 2.128 h
